Values quoted from earlier work, collected in PMC8380238, “Structure-based virtual screening of CYP1A1 inhibitors: towards rapid tier-one assessment of potential developmental toxicants” (Archives of Toxicology, 2021).

Test system: human CYP1A1
Parameters: unit not given beside the values
Conditions: cited from earlier work

For Diniconazole, which AC50 is on record?
Its AC50 is -0.1525.
